{"source": "patent US12201712B2", "about": "“Method for dyeing keratinous material, comprising the use of an organosilicon compound, a phosphoric acid ester and a dyeing compound” (Henkel AG & Co. KGaA, priority 2020, dated 2025)", "origin": "cited, not measured here", "settings": "25° C."}
{"substance": "3,4,5,6-tetrachloro-2-(1,4,5,8-tetrabromo-6-hydroxy-3-oxoxanthen-9-yl)benzoic acid [Acid Red 92]", "values": [{"measurement": "solubility in water", "result": "greater than 10 g/L"}]}
